The assay concerns the target Bromodomain-containing protein 4 (Homo sapiens, UniProt O60885). The assay can be described thus: Inhibitors were first serially diluted in DMSO and added to the plate wells before the addition of other reaction components. […] The assays were carried out at room temperature in the assay buffer (50 mM Tris-HCl, pH 7.5, 0.01% Tween-20, 0.01% BSA, 5 mM DTT), containing 50 nM Biotin-labeled tetra-acetylated histone H4 peptide (H4Ac4) and BRD4-BD1 or BRD4-BD2 protein at concentration less than 1 nM. […] After plate sealing, the plate was incubated in the dark at room temperature for 75 min. before reading on a PHERAstar FS plate reader (BMG Labtech). IC50 determination was performed by fitting the curve of percent control activity versus the log of the inhibitor concentration using the GraphPad Prism 5.0 software.

Our source for the IC50 values is ChEMBL document CHEMBL5729424, “Tricyclic heterocycles as BET protein inhibitors” (2022).

As usually defined, the IC50 is the concentration that inhibits the measured activity by half. Take `Cc1noc(C)c1-c1ccc2nc(N3CC[C@H](O)C3)n3c2c1OCC3c1cccnc1` (stereo partly specified): the IC50 entry is “in the range around 550 nM”.
